Biological target: aldose reductase (Rattus norvegicus, UniProt P07943)
Assay: Aldose reductase inhibition (optical density at 340 nm, Kinoshita's method)
Assay type: biochemical
Conditions: read-out: IC50(M) Molar concentration of a compound producing 50% inhibition of aldose reductase; aldose reductase purified from rat lenses; pH 6.2; DL glyceraldehyde, NADPH; tested form: free acid (monoethyl ester)

SMILES: CCOC(=O)CCCCCCCC(=O)N1C(c2cccc([N+](=O)[O-])c2)SC[C@H]1C(=O)O (stereo partly shown)
- IC50: 1.1e-08 M
